{
  "sequences": {"note": "The chains behind the UniProt entries cited, without tags or fusion partners. Where a name states a change or a piece, a line headed by the entry shows the natural chain unless it says otherwise.", "UniProt P33033": "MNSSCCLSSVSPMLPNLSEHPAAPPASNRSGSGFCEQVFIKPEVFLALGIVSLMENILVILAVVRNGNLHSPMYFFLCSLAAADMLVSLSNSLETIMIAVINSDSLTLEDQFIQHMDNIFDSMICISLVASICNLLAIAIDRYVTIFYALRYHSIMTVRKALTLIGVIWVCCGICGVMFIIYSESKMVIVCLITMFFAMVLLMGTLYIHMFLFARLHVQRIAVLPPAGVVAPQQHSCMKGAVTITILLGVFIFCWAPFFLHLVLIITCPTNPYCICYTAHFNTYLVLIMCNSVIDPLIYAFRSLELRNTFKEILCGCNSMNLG"},
  "source": "paper PMC6261661",
  "about": "(ACS chemical neuroscience, 2018)",
  "origin": "cited, not measured here",
  "molecular_target": "mMC3R (Mus musculus, UniProt P33033)",
  "settings": "reference peptide from the literature; ref [32]; cited from earlier work",
  "data": [
    {"substance": "Ac-His-(pI)DPhe-Arg-Trp-NH2 [Peptide 45]", "values": [
      {"measurement": "mMC3R pA2", "result": "7.3±0.2"}
    ]}
  ]
}
